Results from ChEMBL document CHEMBL5223132, “Structure-activity relationships of mixed σ1R/σ2R ligands with antiproliferative and anticancer effects” (Bioorg Med Chem, 2022).

By UniProt entry, the sequences of proteins in these tests, tags left out.
UniProt Q99720, whole entry: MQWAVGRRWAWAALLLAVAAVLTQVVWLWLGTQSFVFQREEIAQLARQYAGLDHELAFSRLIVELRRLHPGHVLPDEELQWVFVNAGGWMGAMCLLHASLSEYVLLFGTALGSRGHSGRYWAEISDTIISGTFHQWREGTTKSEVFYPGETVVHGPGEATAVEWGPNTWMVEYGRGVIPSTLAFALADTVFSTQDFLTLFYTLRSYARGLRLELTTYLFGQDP
UniProt Q5BJF2, whole entry: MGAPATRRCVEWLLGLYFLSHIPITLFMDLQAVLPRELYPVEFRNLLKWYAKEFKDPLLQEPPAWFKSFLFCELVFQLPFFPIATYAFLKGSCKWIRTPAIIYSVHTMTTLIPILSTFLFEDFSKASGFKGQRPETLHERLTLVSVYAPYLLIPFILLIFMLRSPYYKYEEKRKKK

Assays:
[1] = biological target: Sigma non-opioid intracellular receptor 1 (Homo sapiens, UniProt Q99720); assay: Displacement of [H3]DTG from sigma 1 receptor (unknown origin) by competition binding assay
[2] = biological target: Sigma intracellular receptor 2 (Homo sapiens, UniProt Q5BJF2); assay: Displacement of [H3]DTG from sigma 2 receptor (unknown origin) by competition binding assay

Ki [2] [nM] | Compound | Ki [1] [nM]
 | Fc1ccc(-n2cc(CCCCN3CCC4(CC3)OCc3ccccc34)c3ccccc32)cc1 [SIRAMESINE] | 10.5
0.68 | COc1cccc2c1CCCC2CCCN1CCN(C2CCCCC2)CC1 (configuration not stated) | 
